Conditions: half-life in blood plasma, rat; for t/2 before UNX: before unilateral nephrectomy, administration into jugular vein; for t/2 after UNX: two days convalescence after unilateral nephrectomy

fluorescein isothiocyanate cellobiose [FITC-CEL]
t/2 before UNX: 34 ± 6 min | t/2 after UNX: 95 ± 12 min

fluorescein isothiocyanate hexaethylene glycol [FITC-HEG]
t/2 before UNX: 45 ± 16 min | t/2 after UNX: 71 ± 39 min

fluorescein isothiocyanate mannose [FITC-MAN]
t/2 before UNX: 58 ± 7 min | t/2 after UNX: 104 ± 37 min

From patent US20070218563A1, “Stiochiometrically defined dye-labelled substances for measuring glomerular filtration rate, the production thereof and their use” (Roche Diagnostics Operations, Inc., priority 2004, published 2007)
